Measurements from PubChem BioAssay AID493091 (Sanford-Burnham Center for Chemical Genomics, 2011).
This is a selection; strong and weak results do not stand in their true shares. The source made the active and inactive calls.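 Rule for the calls: active = inhibition above about 50% at 20 µM (limit read from the data); inactive = the rest.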

Chains of the proteins cited; added tags and fusions are not shown. Lines headed by an entry give the natural chain unless they say otherwise; changes in a name come on top.
UniProt Q9GZU7: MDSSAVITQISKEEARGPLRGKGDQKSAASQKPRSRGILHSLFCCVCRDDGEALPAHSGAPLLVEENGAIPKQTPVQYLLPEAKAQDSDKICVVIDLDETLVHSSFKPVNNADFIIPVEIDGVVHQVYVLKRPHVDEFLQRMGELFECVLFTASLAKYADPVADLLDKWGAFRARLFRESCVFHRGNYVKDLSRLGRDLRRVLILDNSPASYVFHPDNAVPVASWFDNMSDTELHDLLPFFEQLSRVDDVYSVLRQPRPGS

biological target: Carboxy-terminal domain RNA polymerase II polypeptide A small phosphatase 1 (Homo sapiens) (UniProt Q9GZU7); assay: Scp-1 phosphatase inhibitors, primary screen, biochemical, colorimetric, uHTS (AID 493091); conditions: Recombinant Scp1, phosphopeptide, malachite green phosphate absorbance; at 20 µM; hits give high values;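 note: plate controls were DMSO wells with enzyme for no effect and wells lacking enzyme for full effect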
Outline: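 assay system = SCP-1 phosphatase catalytic domain, residues 76-261 | buffer or medium = 50 mM Tris acetate pH 5.5, 0.005% Tween-20, 10 mM MgCl2 | incubation = enzyme reaction 45 min at room temperature, colour 5 min, stabilisation 30 min | signal = Phosphate-binding colour reagent, absorbance read at 630 nm | measure = % inhibition at 20 µM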

Structure (SMILES) | inhibition
O=[N+]([O-])c1cc(Oc2ccc([N+](=O)[O-])cc2C(F)(F)F)cc([N+](=O)[O-])c1 | inactive: -4.68%
COc1ccc(N/C(=N/P(=O)(N2CCOCC2)N2CCOCC2)N2CCOCC2)cc1 | inactive: -8.95%
Cc1c2c(nc3ccccc13)SC(C(Cl)Cl)C2 (stereo not given) | inactive: -2.82%
O=C(OC1CN2CCC1CC2)C12CC3CC(CC(C3)C1)C2 (stereo not given) | inactive: -10.4%
Cc1cc(=O)[nH]c(N[N+](=O)[O-])n1 | inactive: 2.1%
O=P1(N(CCCl)CCCl)OCCCN1CCCl (stereo not given) | inactive: -1.8%
O=P1(N(CCCl)CCCl)Nc2ccccc2N1 | inactive: -32.5%
COc1ccc2nc(NP(=O)(c3ccccc3)c3ccccc3)sc2c1 | inactive: -6.05%
COc1cc(I)ccc1[As](=O)(O)O | inactive: -5.75%
ClCCSc1nnc(-c2cccnc2)o1 | inactive: -5.01%
COC(=O)C1(C)COP(=O)(N2CCCCCC2)OC1 (stereo not given) | inactive: -0.31%
CC(C)c1ccc(OP(=O)(Nc2ccccn2)Oc2ccccc2F)cc1 (stereo not given) | inactive: 0.86%
CC(C)NC(=O)NP(=O)(Oc1ccccc1)Oc1ccccc1 | inactive: 4.49%
O=C(OC1CN2CCC1CC2)c1cccc2[nH]cnc12 (stereo not given) | inactive: -2.17%
CCN(CC)C(=S)SC(NC=O)C(Cl)(Cl)Cl (stereo not given) | inactive: -4.53%
O=[N+]([O-])c1cc([N+](=O)[O-])c(-c2ccn[nH]2)s1 | inactive: -8.66%
C[As](=O)(O)c1cccc(C(=O)O)c1 | inactive: -11%
O=[As](O)(c1ccc(O)cc1)c1ccccc1O | inactive: -3.96%
O=[N+]([O-])c1ccc(-c2cc([N+](=O)[O-])c(O)c([N+](=O)[O-])c2)cc1 | inactive: 7.97%
COc1cc(C(=O)NCC2(N3CCOCC3)CCCCC2)ccc1OCC(C)C | inactive: 5.82%
Cc1ccc(OP(=O)(Nc2ccc([N+](=O)[O-])cn2)Oc2ccc(C)cc2)cc1 | inactive: -4.19%
Cc1ccc2nc3c(c(C)c2c1)CC(C(Cl)Cl)S3 (stereo not given) | inactive: 2.68%
CCOC(=O)Nc1cccc([As](=O)(O)O)c1 | inactive: 4.15%
O=P(Nc1ccccn1)(c1cccc2ccccc12)c1cccc2ccccc12 | inactive: -1.41%
Cc1cc(SC(NC=O)C(Cl)(Cl)Cl)ncn1 (stereo not given) | inactive: 1.17%

Structure (SMILES) | inhibition
O=[N+]([O-])c1ccc(Nc2ccc(Oc3ccc([N+](=O)[O-])cc3[N+](=O)[O-])cc2)c([N+](=O)[O-])c1 | inactive: 22.5%
CCOC(=O)Nc1ccc([As](=O)(O)O)c(O)c1 | inactive: -7.43%
CC1CCNP(=O)(N(CCCl)CCCl)O1 (stereo not given) | inactive: -0.04%
CCCCOc1ccc(C(=O)NCC2(N3CCCCC3)CCCCC2)cc1OC | inactive: -2.31%
Cc1cc(SC(NC(=O)c2ccccc2)C(Cl)(Cl)Cl)nc(C(C)C)n1 (stereo not given) | inactive: 1.32%
O=C(OC1CN2CCC1CC2)c1cccc([N+](=O)[O-])c1 (stereo not given) | inactive: -12.1%
CCOC(=O)c1ccc(NC(=O)C(C)(CCl)SC)cc1 (stereo not given) | inactive: 0.35%
CCC(C)N(CC(C)C)C(=S)SC(NC(C)=O)C(Cl)(Cl)Cl (stereo not given) | inactive: -17.3%
COP1(=S)c2c(C)nn(CCC#N)c2N=C(c2ccc(F)cc2)N1C (stereo not given) | inactive: -2.46%
O=C(COc1ccccc1)OC1CN2CCC1CC2 (stereo not given) | inactive: 2.71%
O=C(Nc1ccncc1[N+](=O)[O-])c1ccc([N+](=O)[O-])cc1[N+](=O)[O-] | inactive: -7.31%
COc1ccccc1CNC(=O)COC(=O)C(O)(c1ccccc1)c1ccccc1 | inactive: -7.58%
CC(C)/C=N\N=C(\N)N[N+](=O)[O-] | inactive: -2.34%
CN(C(=O)Cc1ccc(Cl)c(Cl)c1)[C@@H]1CCCC[C@H]1N1CCCC1 | inactive: 1.31%
CC1(CBr)Cn2c(nc3ccccc3c2=O)S1 (stereo not given) | inactive: -10.1%
O=P1(Nc2ccccn2)COc2ccccc2OC1 | inactive: 0.45%
CCC1=CC2Cc3nc4ccc(Cl)cc4c(N)c3C(C1)C2 (stereo not given) | inactive: -2.03%
CCOP(=O)(NC(=NC(C)c1ccccc1)NC(C)c1ccccc1)OCC (stereo not given) | inactive: -4.42%
CCOP(=O)(Nc1ccc(C)cn1)OCC | inactive: 3.63%
CN(CCCl)Cc1cc(Cl)c(NC2=NCCN2)c(Cl)c1 | inactive: 3.84%
Clc1n[nH]nc1-c1nn[nH][15n]1 | inactive: -6.81%
CC(C)(C)C(=O)NC(Sc1ncccn1)C(Cl)(Cl)Cl (stereo not given) | inactive: 3.46%
O=P1(Nc2ncccn2)COc2ccccc2OC1 | inactive: -4.28%
Nc1cccc([As](=O)(O)c2ccccc2)c1 | inactive: -1.69%
O=[As](O)(c1cccs1)c1cccs1 | inactive: -4.44%
